# From ChEMBL document CHEMBL5223156, “Synthesis and biological evaluation of novel N-benzyltriazolyl-hydroxamate derivatives as selective histone deacetylase 6 inhibitors” (Bioorg Med Chem, 2023)
# Molecular target: T1, Histone deacetylase 8 (Homo sapiens, UniProt Q9BY41)
# T1 sequence (Q9BY41 whole entry): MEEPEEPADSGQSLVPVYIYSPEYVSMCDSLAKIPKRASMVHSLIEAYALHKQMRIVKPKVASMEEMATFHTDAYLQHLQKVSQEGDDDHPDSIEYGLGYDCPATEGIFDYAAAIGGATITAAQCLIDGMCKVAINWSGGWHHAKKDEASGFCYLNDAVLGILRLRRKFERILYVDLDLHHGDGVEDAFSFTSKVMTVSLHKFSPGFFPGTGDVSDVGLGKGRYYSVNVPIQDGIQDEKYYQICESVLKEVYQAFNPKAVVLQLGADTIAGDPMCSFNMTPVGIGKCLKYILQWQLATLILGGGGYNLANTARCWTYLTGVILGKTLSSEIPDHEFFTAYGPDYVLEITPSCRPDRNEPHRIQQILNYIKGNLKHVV
# Assay: Inhibition of human recombinant HDAC8 using fluorogenic substrate measured after 30 mins
smiles,measurement,value
O=C(CCCCCCC(=O)Nc1ccccc1)NO [VORINOSTAT],IC50,2880 nM
